Results: PMC8524809 (Molecular Therapy, 2021)

System: SARS-CoV-2
Format: cell-based

With `CC(C)(O)c1ccccc1CC[C@@H](SCC1(CC(=O)O)CC1)c1cccc(/C=C/c2ccc3ccc(Cl)cc3n2)c1` [montelukast] the “Effective concentration on the SARS-CoV-2” value was 25 µM.
